Earlier results in patent publication US20070281995A1, “Creatine analog prodrugs, compositions and uses thereof” (XenoPort, Inc., priority 2006, published 2007).

Settings: ALS

SMILES: Nc1nc2ccc(OC(F)(F)F)cc2s1 [riluzole]
- extension of survival: about three
